# Results from ChEMBL document CHEMBL2157965, “Structure-based design of potent Bcl-2/Bcl-xL inhibitors with strong in vivo antitumor activity” (J Med Chem, 2012).
# Chains of the proteins cited; added tags and fusions are not shown.
# UniProt Q07820, whole entry: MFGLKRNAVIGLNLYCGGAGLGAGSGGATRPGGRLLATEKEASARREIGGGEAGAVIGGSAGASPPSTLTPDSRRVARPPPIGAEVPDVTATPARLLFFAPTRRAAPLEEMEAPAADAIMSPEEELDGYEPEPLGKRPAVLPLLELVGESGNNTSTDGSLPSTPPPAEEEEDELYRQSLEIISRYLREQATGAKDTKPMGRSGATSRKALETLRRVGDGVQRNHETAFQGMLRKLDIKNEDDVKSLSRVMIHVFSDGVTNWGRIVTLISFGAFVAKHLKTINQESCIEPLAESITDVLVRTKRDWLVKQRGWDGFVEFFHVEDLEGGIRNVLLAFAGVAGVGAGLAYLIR
# Biological target: Induced myeloid leukemia cell differentiation protein Mcl-1 (Homo sapiens, UniProt Q07820)
# Test: Inhibition of human N-terminal His8-tagged Mcl1 expressed in Escherichia coli BL21(DE3) assessed as inhibition of Fluorescein-labeled BID binding after 1 to 2 hrs by fluorescence polarization assay
smiles,measurement,value
CN(C)CC[C@H](CSc1ccccc1)Nc1ccc(S(=O)(=O)NC(=O)c2ccc(N3CCN(Cc4ccccc4-c4ccc(Cl)cc4)CC3)cc2)cc1[N+](=O)[O-] [ABT 737],IC50,> 1000 nM
